Test results as given in patent publication US10172863B2, “Purine derivatives useful as HSP90 inhibitors” (Sloan-Kettering Institute for Cancer Research, priority 2009, dated 2019).
Some compounds may have been tested in ways that are not shown here.

Tests used:
SKBr3 cell Hsp90 = assay: EC50 for Hsp90 binding in SKBr3 cell lysate; conditions: read-out: EC50, binding to SKBr3 cell Hsp90
JNPL3 brain Hsp90 = assay: EC50 for Hsp90 binding in JNPL3 brain cell lysate; conditions: read-out: EC50, binding to JNPL3 brain Hsp90

SMILES | EC50 (SKBr3 cell Hsp90) | EC50 (JNPL3 brain Hsp90)
CC(C)CNCCn1c(Cc2cc3c(cc2-c2nccs2)OCO3)nc2c(N)nc(F)nc21 | 19.7 nM | –
CC(C)CNCCn1c(Cc2cc3c(cc2-c2ccc[nH]2)OCO3)nc2c(N)nc(F)nc21 | 121 nM | 89 nM
CC(C)CNCCn1c(Cc2cc3c(cc2-c2ccoc2)OCO3)nc2c(N)nc(F)nc21 | 26 nM | 14 nM
CC(C)CNCCn1c(Cc2cc3c(cc2CC#N)OCO3)nc2c(N)nc(F)nc21 | 93 nM | 46 nM
CC(C)(C)CNCCn1c(Cc2cc3c(cc2I)CCO3)nc2c(N)nc(F)nc21 | – | 8 nM
C#Cc1cc2c(cc1Cc1nc3c(N)nc(F)nc3n1CCNCC(C)C)OCO2 | – | < 200 nM
Cc1ccc(-c2cc3c(cc2Cc2nc4c(N)nc(F)nc4n2CCNCC(C)C)OCO3)o1 | 12 nM | 6 nM
CC(C)CNCCn1c(Cc2cc3c(cc2-c2ccc(C=O)o2)OCO3)nc2c(N)nc(F)nc21 | 142 nM | 82 nM
CC(C)CNCCn1c(Cc2cc3c(cc2-c2cnoc2)OCO3)nc2c(N)nc(F)nc21 | 185 nM | 153 nM
CC(C)CNCCn1c(Cc2cc3c(cc2-c2ncco2)OCO3)nc2c(N)nc(F)nc21 | 11.4 nM | –
CC(C)CNCCn1c(Cc2cc3c(cc2-c2cccs2)OCO3)nc2c(N)nc(F)nc21 | 59 nM | 24 nM
CC(C)CNCCn1c(Cc2cc3c(cc2-c2ccco2)OCCO3)nc2c(N)nc(F)nc21 | 5.3 nM | –
CC(C)CNCCn1c(Cc2cc3c(cc2-c2cc[nH]n2)OCCO3)nc2c(N)nc(F)nc21 | 7.7 nM | –
CC(C)(C)NCCn1c(Cc2cc3c(cc2I)OCCO3)nc2c(N)nc(F)nc21 | – | 45.1 nM
CC(C)CNCCn1c(Cc2cc3c(cc2-c2cn[nH]c2)OCO3)nc2c(N)nc(F)nc21 | 128 nM | –
CC(C)CNCCn1c(Cc2cc3c(cc2-c2ccnn2C)OCO3)nc2c(N)nc(F)nc21 | > 300 nM | > 300 nM
CC(C)CNCCn1c(Cc2cc3c(cc2-c2cc[nH]n2)OCO3)nc2c(N)nc(F)nc21 | 7.2 nM | 2.6 nM
CC(C)CNCCn1c(Cc2cc3c(cc2I)OCCO3)nc2c(N)nc(F)nc21 | 9.4 nM | –
CC(C)CNCCn1c(Cc2cc3c(cc2I)CCO3)nc2c(N)nc(F)nc21 | – | 17.3 nM
CC(C)CNCCn1c(Cc2cc3c(cc2-c2ccco2)OCO3)nc2c(N)nc(F)nc21 | 5.2 nM | 3.9 nM
CC(C)CNCCn1c(Cc2cc3c(cc2-c2cc[nH]c2)OCO3)nc2c(N)nc(F)nc21 | 47 nM | 23 nM
